Earlier results as cited in US20090186081A1, “Disintegrating Loadable Tablets” (LifeCycle Pharma A/S, priority 2006, published 2009).
This is a selection: effects in other tests are not listed, and their absence says nothing.

Settings: Table 1, Poorly-Soluble Drug Candidates

SMILES: CCC(=O)N(c1ccccc1)C1CCN(CCc2ccccc2)CC1
- Solubility In Water: Sparingly
